Measured values taken from PubChem BioAssay AID796 (Columbia University Molecular Screening Center, 2007).
Only a part is listed here, and it is no random draw. The source made the active and inactive calls.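 How the source made its calls: active means inhibition above about 30% together with a positive call from visual inspection of the well image (limit read from the data); inconclusive means inhibition above a set limit but visual check negative; inactive means inhibition not above a set limit, visual check negative.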

test: inhibitors of IL-1B driven NFkB p65 nuclear import, primary screen, imaging, HUVEC, IL-1B stimulus, high-content imaging (AID 796); details: HUVEC IL-1B NFkB p65 nuclear translocation imaging; at 2 µM; stronger effect = higher value;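 further: nuclear over cytoplasmic p65 intensity ratio measured by imaging; 0% = IL-1B stimulated DMSO wells and 100% = unstimulated DMSO wells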

SMILES	inhibition
CCOP(C)(=S)SCC(=O)NC(C)(CC)C(=O)O (stereo unspecified)	inactive: 0.3%
c1nnnn1CCn1cnnn1	inactive: 4.7%
O=P(Nc1nccs1)(c1ccccc1)c1ccccc1	inactive: -6.8%
CP(=O)(Nc1ccc2c(c1)OCCO2)Oc1ccccc1 (stereo unspecified)	inactive: -33.2%
CN(C)CCOC(=O)C(O)(c1ccccc1)C1CCCCC1 (stereo unspecified)	inactive: 1%
O=C(OC1CN2CCC1CC2)c1cccc(Cl)c1 (stereo unspecified)	inactive: 11.7%
CCOC(=O)NC(Sc1ccccc1)C(Cl)(Cl)Cl (stereo unspecified)	inactive: 10.2%
CP(=O)(Nc1ccccc1)Oc1ccc(F)cc1 (stereo unspecified)	inactive: -17.6%
COC(=O)c1cc2c(s1)N=C(c1ccccc1)N(C)P2(=O)N1CCOCC1 (stereo unspecified)	inactive: 7.3%
CCN(CC)CCCOC(=O)C(O)(c1ccccc1)C1CCCCC1 (stereo unspecified)	inactive: -10.1%
CCC(=O)N1C2C3N(C(=O)CC)C1C1N(C(=O)CC)C(C(N1C(=O)CC)N3C(=O)CC)N2C(=O)CC	inactive: -22.5%
CP(=O)(Nc1ccccc1F)Oc1ccccc1 (stereo unspecified)	inactive: 9.7%
O=P1(Nc2nc3ccc(Cl)cc3s2)COc2ccccc2O1 (stereo unspecified)	inactive: -17.7%
COc1ccc(OP(C)(=O)Nc2ccccn2)cc1 (stereo unspecified)	inactive: -15.8%
CN(C)CCOC(=O)C(O)(c1ccccc1)C1CCCC1 (stereo unspecified)	inactive: -5.9%
CN1CCCC(OC(=O)C(c2ccccc2)c2ccccc2)C1 (stereo unspecified)	inactive: 7.8%
COc1ccccc1OP(C)(=O)Nc1ccc(C)cc1C (stereo unspecified)	inactive: 2.5%
CP(=O)(Nc1ccccn1)Oc1ccccc1 (stereo unspecified)	inactive: -2.8%
CCc1ccc(OP(C)(=O)O)cc1	inactive: -1%
CC(C)CC(=O)NC(Sc1ccc(Cl)cc1)C(Cl)(Cl)Cl (stereo unspecified)	inactive: -4.3%
Cc1c(NP(C)(=O)Oc2ccc(C(C)C)cc2)c(=O)n(-c2ccccc2)n1C (stereo unspecified)	inactive: 3.6%

SMILES	inhibition
Cc1c2non([O-])c-2c(C)[n+](=O)[n+]1[O-]	inactive: -16.9%
Oc1ccccc1CNc1ccccn1	inactive: -8.9%
COc1ccccc1OP(C)(=O)Nc1ccc(C)c(C)c1 (stereo unspecified)	inactive: -2%
CCOP(=O)(Nc1ccccc1)OCC	inactive: -3.6%
Cc1nc2ccc3ccccc3c2o1.O=[N+]([O-])c1cc([N+](=O)[O-])c(O)c([N+](=O)[O-])c1	inactive: -41.7%
CP(=O)(OC12CC3CC(CC(C3)C1)C2)OC12CC3CC(CC(C3)C1)C2	inactive: -20.3%
COc1ccccc1OP(C)(=O)Nc1c(C)n(C)n(-c2ccccc2)c1=O (stereo unspecified)	inactive: -23.1%
O=[N+]([O-])c1cccc2n[nH]nc12	inactive: 0.3%
CC(=O)N1C2C3N(C(C)=O)C1C1N(C(C)=O)C(C(N1C(C)=O)N3C(C)=O)N2C(C)=O	inactive: 0.5%
CCc1nc2c(n1)c1c(non1O)c1c2no[n+]1[O-]	inactive: -13.3%
CP(=O)(Oc1ccccc1)N1CCOC1=O (stereo unspecified)	inactive: 6.3%
CCN(CC)CC(O)COC(=O)C(O)(c1ccccc1)C1CCCCC1 (stereo unspecified)	inactive: 1.4%
CC1CCN(C(=O)Oc2c(Cl)cc(Cl)c3cccnc23)CC1	inactive: -3.5%
CC(C)(C)c1ccc(OP(C)(=O)O)cc1	inactive: -3.7%
CP(=O)(Nc1ccc(Cl)cc1)Oc1ccc(F)cc1 (stereo unspecified)	inactive: -20.9%
O=C(COc1ccccc1)OC1CN2CCC1CC2 (stereo unspecified)	inactive: 7.2%
CP(=O)(NC(=O)Nc1ccccc1)Oc1ccccc1 (stereo unspecified)	inactive: -2.7%
COP1(=S)c2c(C)nn(CCC#N)c2N=C(c2ccc(F)cc2)N1C (stereo unspecified)	inactive: 5.2%
CP(=O)(Nc1ccccn1)Oc1ccc(Cl)cc1 (stereo unspecified)	inactive: -4.3%
CCC(C)N(CC(C)C)C(=S)SC(NC(C)=O)C(Cl)(Cl)Cl (stereo unspecified)	inactive: -4.9%
CP(=S)(Nn1cnnc1)Oc1ccccc1 (stereo unspecified)	inactive: -8.1%

SMILES	inhibition
COc1ccc(OP(C)(=O)Nc2cccc(F)c2)cc1 (stereo unspecified)	inactive: -10.8%
CCN(CC)C(=S)SC(NC=O)C(Cl)(Cl)Cl (stereo unspecified)	inactive: 0.6%
ClCCSc1nnc(-c2cccnc2)o1	inactive: 10.5%
O=C(OC1CN2CCC1CC2)C12CC3CC(CC(C3)C1)C2 (stereo unspecified)	inactive: -19.3%
Cc1cccc(OCC(=O)OC2CN3CCC2CC3)c1 (stereo unspecified)	inactive: -22.3%
Cc1ccc(C)c(NP(C)(=O)Oc2ccccc2)c1 (stereo unspecified)	inactive: -18%
Cc1cc(C)cc(OP(C)(=O)Nc2ccccn2)c1 (stereo unspecified)	inactive: 22.4%
CCOP1(=S)c2c(C)nn(CCC#N)c2N=C(c2ccccc2F)N1C (stereo unspecified)	inactive: -2.5%
O=[N+]([O-])c1ccc2c(c1)nnn2O	inactive: -0.2%
CCOP1(=S)c2c(C)nn(CCC#N)c2N=C(c2ccc(F)cc2)N1C (stereo unspecified)	inactive: -1%
Cc1nn(-c2ccccc2)c2c1P(=O)(N1CCOCC1)N(C)C(c1ccccc1)=N2 (stereo unspecified)	inactive: -17.8%
O=P1(Nc2ccc(Br)cn2)COc2ccccc2OC1	inactive: -3.5%
Cc1ccc(OCC(=O)OC2CN3CCC2CC3)cc1 (stereo unspecified)	inactive: -1.4%
O=P1(Nc2ncccn2)COc2ccccc2OC1	inactive: -5.5%
COc1ccccc1OP(C)(=O)Nc1c(C)cccc1C (stereo unspecified)	inactive: 1.3%
Clc1n[nH]nc1-c1nn[nH][15n]1	inactive: 0.8%
O=P1(Nc2ccccn2)COc2ccccc2OC1	inactive: -15.9%
Cc1nc2ccc3ccccc3c2s1.O=[N+]([O-])c1cc([N+](=O)[O-])c(O)c([N+](=O)[O-])c1	inactive: 4.3%
CC1(CBr)Cn2c(nc3ccccc3c2=O)S1 (stereo unspecified)	inactive: 7.5%
